Where two headings read alike, the source gives them in different places.
Tested on: mice
Settings: p.o.

## CN1C(C(=O)Nc2ccccn2)C(=O)c2ccccc2S1(=O)=O (centres unmarked) [Piroxicam, 3,4-dihydro-2-methyl-4-oxo-N-(2-pyridyl)-2H-1,2-benzothiazine-3-carboxamide 1,1-dioxide]
100 mg/kg
  Number of deaths/total number of test animals: 0/5
200 mg/kg
  Number of deaths/total number of test animals: 1/5
400 mg/kg
  Number of deaths/total number of test animals: 1/5
650 mg/kg
  Number of deaths/total number of test animals: 4/5
800 mg/kg
  Number of deaths/total number of test animals: 5/5
